This note sets out measurements from patent publication US20130210034A1, “COMPLEX PHOSPHOPROTEIN ACTIVATION PROFILES” (BECKMAN COULTER, INC., priority 2005, published 2013).

Several values for one entry are separate records, joined by “and”; a condition that tells them apart may be missing. Equal values may be shown once.

Test in all cases: Phosphoprotein kinetic profiles in bone marrow samples from healthy donors
Holding throughout (type): cell-based, human
Conditions in all cases: CD34^+, CD117^+ cells, healthy donor samples

One assay has as its system pERK. Here is the method:
(§1) Phosphoprotein kinetic profiles were analyzed in bone marrow aspiration samples from nine healthy, adult donors (i.e., normal bone marrow or NBM) and from five AML patients. Samples from healthy donors included 5 males and 4 females, ranging in age from 26 to 49 years. Approximately 10 to 20 mL of bone marrow (BM) samples were collected from the posterior iliac crest of the volunteers using IRB approved protocols. The BM samples were filtered using a 40 μm Nylon cell strainer to remove marrow particles and the white blood cell concentration determined using a blood analyzer. […] The samples were immediately used for subsequent experimentation.
(§2) To assess the signal transduction response after growth factor simulation, 100 to 200 μL of processed samples including about 2×10^6 WBC/100 μL were added to tubes and incubated at 37° C. for 30 minutes. For inhibition experiments, cells were incubated with 100 μM U0126, 1 μg/mL rapamycin, or both for at least 20 minutes prior to cytokine addition and in all cases for 30 min prior to formaldehyde addition. […] After stimulation the cells were immediately fixed by the addition of formaldehyde to a final concentration of 4% v/v and incubated for 10 minutes at room temperature. Following fixation, red blood cells were lysed by the addition of TRITON-X/PBS solution (0.1% v/v final concentration Triton X-100) supplemented with a 1 x phosphatase inhibitor cocktail (PIC; final concentrations: 0.2 mM sodium orthovanadate, 2 mM sodium pyrophosphate decahydrate, 2 mM [3-glycerophosphate, and 10 mM sodium fluoride) and incubation at 37° C. for 20 minutes. The incubated solution was chilled by the addition of ice-cold Wash Buffer (final concentration 1×PBS and either 4% bovine serum albumin (BSA) or 4% heat-inactivated fetal bovine serum (FBS), supplemented with 1×PIC), and the samples were centrifuged at 300 g for 6 minutes at 4° C.). If the lysis was incomplete, samples were retreated with 0.1% Triton X-100 at 37° C. for 10 to 20 minutes. […]
(§3) To stain cells with fluorescent conjugated monoclonal antibodies, the incubated solution was centrifuged to remove the supernatant and the pellet was incubated for 60 minutes at 4° C. with an antibody staining solution including 0.25 μg to 0.50 μg of pS6-Pacific Blue, pERK-ALEXA 488, pSTAT5-ALEXA 647, CD34-PE, CD45-PerCP, and CD117-PC7. Samples were washed three times with ice-cold Wash Buffer supplemented with 1×PIC, resuspended in 0.5 mL ice-cold Wash Buffer supplemented with 1×PIC including 0.5 μg/mL DAPI, and analyzed by flow cytometryusing a BD LSR II Flow Cytometer, equipped with a High Throughput Sampler (HTS). […]

A further assay relates to pS6. The protocol:
as §1, §2, §3

Another assay has as its system pSTAT5. Here is the method: Phosphoprotein kinetic profiles were analyzed in bone marrow aspiration samples from nine healthy, adult donors (i.e., normal bone marrow or NBM) and from five AML patients. Samples from healthy donors included 5 males and 4 females, ranging in age from 26 to 49 years. Approximately 10 to 20 mL of bone marrow (BM) samples were collected from the posterior iliac crest of the volunteers using IRB approved protocols. The BM samples were filtered using a 40 μm Nylon cell strainer to remove marrow particles and the white blood cell concentration determined using a blood analyzer. The samples contained approximately 7 to 31 million white blood cells (WBCs) per mL. The samples were immediately used for subsequent experimentation. […]
as §3

B1: Interleukin- 3 (protein, UniProt P08700 20-152, looked up)
Interleukin-3: APMTQTTPLKTSWVNCSNMIDEIITHLKQPPLPLLDFNNLNGEDQDILMENNLRRPNLEAFNRAVKSLQNASAIESILKNLLPCLPLATAAPTRHPIHIKDGDWNEFRRKLTFYLKTLENAQAQQTTLSLAIF
notes: colony-stimulating cytokine
Turning to B1, in the assay with pERK, the “pERK Amp (peak amplitude of fold stimulation)” value is 6.9 and 6.9 ± 2.4; the “pERK RI (response interval)” value is listed as “Variable”. Also, in the assay with pS6, the “pS6 Amp (peak amplitude of fold stimulation)” value is 4.2 and 4.2 ± 1.0; the “pS6 RI (response interval)” value is “Variable”. Further, in the assay on pSTAT5, the “pSTAT5 Amp (peak amplitude of fold stimulation)” value is 38 and 38 ± 12; the “pSTAT5 RI (response interval)” value is reported as >60 min.
